Test results taken from US8097624B2, “Cycloalkyl derivatives of 3-hydroxy-4-pyridinones” (Apotex Inc., priority 2006, dated 2012).
Read-outs that look alike come from different tables or passages of the source.

Legend:
[1] = Redox potentials of iron complexes by cyclic voltammetry; assay type: physicochemical; details: glassy carbon working electrode, 2.0 mM, pH 7.4
[2] = values from Bioanalytical Systems Inc. (BAS), platinum working electrode; cited from earlier work

Potassium ferricyanide (III)
ΔEp [1]: 85 mV
E1/2 ([1]; vs Ag/AgCl): 240 mV
Ep^ox ([1]; vs Ag/AgCl): 282 mV
Ep^red ([1]; vs Ag/AgCl): 197 mV
E1/2 [2]: 272 mV
Ep^ox [2]: 306 mV
Ep^red [2]: 237 mV
ΔEp [2]: 69 mV
